The results in this text go back to patent US4687773A, “(+)-N-N-propylnorapomorphine and selective limbic activity” (priority 1985, dated 1987).

Protein sequences, listed by entry. Tags and fused reporters are not part of them.
UniProt P20288, whole entry: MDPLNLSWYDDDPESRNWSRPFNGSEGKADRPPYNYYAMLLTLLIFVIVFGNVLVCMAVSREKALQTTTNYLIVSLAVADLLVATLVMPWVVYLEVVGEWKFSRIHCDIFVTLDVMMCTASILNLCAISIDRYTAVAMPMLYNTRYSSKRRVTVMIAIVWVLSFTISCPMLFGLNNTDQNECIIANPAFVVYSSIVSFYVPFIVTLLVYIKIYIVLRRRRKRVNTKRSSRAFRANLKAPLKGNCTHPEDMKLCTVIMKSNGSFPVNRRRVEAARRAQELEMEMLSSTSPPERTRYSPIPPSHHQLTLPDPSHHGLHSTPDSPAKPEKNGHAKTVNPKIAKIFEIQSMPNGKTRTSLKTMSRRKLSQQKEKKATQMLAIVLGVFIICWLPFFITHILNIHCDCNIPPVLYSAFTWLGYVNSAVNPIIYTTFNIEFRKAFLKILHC

Where a name gives a salt, the structure may show the parent alone.

In this assay the target is T1, Dopamine Receptors (Bos taurus, UniProt P20288).
T1 construct: protease-free calf caudate nuclei; from tissue; host or cells: calf caudate nucleus, membrane fraction P4
Kind of assay: biochemical. Type of assay: binding, calf.

Usually IC50 stands for the concentration that gives 50% inhibition. Read a low IC50 as greater potency in that assay. In turn, `CCCN1CCc2cccc3c2[C@H]1Cc1ccc(O)c(O)c1-3` [(-)NPA, (R)-N-n-propylnorapomorphine] registered a half-maximal inhibitory concentration (IC50) of 174 nM. `CCCN1CCc2cccc3c2[C@@H]1Cc1ccc(O)c(O)c1-3` [(+)NPA, (S)-N-n-Propylnorapomorphine Hydrochloride] came in with an IC50 of 1410 nM.
